The numbers were not newly measured in patent US20240226060A1, “TOPICAL LIPOSOME POLYPHENOL COMPOSITIONS FOR TREATING AND PREVENTING VARIOUS SKIN DISORDERS AND METHODS OF PREPARATION THEREOF” (PANAG PHARMA INC., priority 2021, published 2024), which cites them from elsewhere.

The conditions of series [1]: equal portions.
For series [2] the following is noted: Mobbili et al.

Values joined by “and” are separate entries in the source; they are usually repeats but may differ in a detail not shown here. Equal values may be shown once. Read-outs that look alike come from different tables or passages of the source.

On to epigallocatechin 3-gallate [EGCG], for which the solubility in series [1] (ethanol/citrate buffer (100 mM, pH 5.0)) was 62.8%; in series [1] (propylene glycol/citrate buffer (100 mM, pH 5.0)) it was 44.9%. Besides, the “encapsulation efficiency, maximum” value is 100% and 98.9% in series [2] (anionic vesicles in presence of Mg2+); 82.3% and 82.2% in series [2] (neutral vesicles in presence of Mg2+).
